IC50 data for 2 compounds are collected here from BindingDB's records for doi:10.3109/14756360903027816 (The University of Montana, 2010).

The chains behind the UniProt entries cited, without tags or fusion partners. Where a name states a change or a piece, a line headed by the entry shows the natural chain unless it says otherwise.
UniProt O42275: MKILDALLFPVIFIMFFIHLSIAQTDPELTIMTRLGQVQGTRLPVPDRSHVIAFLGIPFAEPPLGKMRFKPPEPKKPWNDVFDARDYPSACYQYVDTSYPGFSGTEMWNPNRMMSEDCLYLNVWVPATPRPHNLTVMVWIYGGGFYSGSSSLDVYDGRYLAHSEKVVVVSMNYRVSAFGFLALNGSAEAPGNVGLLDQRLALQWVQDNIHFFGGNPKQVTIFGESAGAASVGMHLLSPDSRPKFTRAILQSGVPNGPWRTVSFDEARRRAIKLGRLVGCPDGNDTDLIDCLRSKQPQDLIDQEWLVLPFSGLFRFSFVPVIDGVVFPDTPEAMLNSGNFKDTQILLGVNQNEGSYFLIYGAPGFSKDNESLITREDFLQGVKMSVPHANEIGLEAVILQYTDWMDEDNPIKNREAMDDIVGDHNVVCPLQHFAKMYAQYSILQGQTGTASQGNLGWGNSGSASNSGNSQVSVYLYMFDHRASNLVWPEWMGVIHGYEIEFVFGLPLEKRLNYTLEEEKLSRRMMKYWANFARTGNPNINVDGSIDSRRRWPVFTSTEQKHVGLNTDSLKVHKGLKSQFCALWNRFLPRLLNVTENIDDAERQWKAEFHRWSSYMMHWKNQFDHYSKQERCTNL

Molecules are shown by their SMILES.

The target of this assay is Acetylcholinesterase (Electrophorus electricus, UniProt O42275). Nature of the assay: AChE Assay. The conditions noted are these: pH 7.6; 20 °C. The method, then:
The inactivation of AChEs was determined using a colorimetric assay [Ellman et al., Biochem. Pharmacol., 7:88-95]. […] The inhibition of rMAChE and EEAChE by compounds 1-7 was determined as follows. DTNB solution and a solution of AChE yielding a 0.1 Abs unit/min rate in PBS (2.80 mL; pH 7.6) were placed in a cuvette at 20°C. To this solution was added either: (a) 10 μL of ACN as the control, or (b) 10 μL of ligand solution (10 mM in ACN). After 6 min incubation, the remaining enzyme activity was determined by adding 20 μL aliquots of the ATCh-I solutions and the hydrolysis rate was monitored at 412 nm over a period of 10 min ( 15 s intervals). The final concentrations of the reactants during enzyme assay were: 0.33 mM DTNB, 0.59 mM ATCh-I, 0.58 mM NaHCO3, and 0.05 mM inhibitor.

Usually IC50 stands for the concentration that inhibits the measured activity by half.

As to `C#CCNS(=O)(=O)c1ccc(-c2c3ccc(=[N+](CC)CC)cc-3oc3cc(N(CC)CC)ccc23)c(S(=O)(=O)[O-])c1` [Lissamine propargyl sulfonamide (6)], the IC50 amounted to 3.57 µM.

In the case of `C#CCNS(=O)(=O)c1ccc(C2=c3cc4c5c(c3Oc3c2cc2c6c3CCCN6CCC2)CCC[N+]=5CCC4)c(S(=O)(=O)[O-])c1` [Texas Red propargyl sulfonamide (7)], the IC50 stood at 10.4 µM.
